Amino acid sequences for entries named in this document (tags omitted). A change or cut given only in a name is not applied to a line headed by its entry.
UniProt Q9HC16: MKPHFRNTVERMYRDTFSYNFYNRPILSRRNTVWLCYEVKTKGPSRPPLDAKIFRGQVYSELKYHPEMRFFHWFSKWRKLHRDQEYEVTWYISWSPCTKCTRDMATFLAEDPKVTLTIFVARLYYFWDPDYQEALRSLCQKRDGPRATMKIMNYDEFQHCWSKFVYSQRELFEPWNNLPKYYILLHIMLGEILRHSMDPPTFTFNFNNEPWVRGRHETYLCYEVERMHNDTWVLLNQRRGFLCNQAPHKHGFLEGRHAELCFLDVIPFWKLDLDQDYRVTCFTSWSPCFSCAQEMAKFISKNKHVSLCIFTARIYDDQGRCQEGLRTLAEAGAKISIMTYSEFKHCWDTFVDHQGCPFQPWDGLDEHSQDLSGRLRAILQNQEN

Only a part is listed here, and it is no random draw. Activity calls are given as the source filed them.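 Rule for the calls: active = inhibition of at least 40% at 20 µM, with no more than 30% in the related APOBEC3A deaminase screen; inactive = the rest.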
Each compound was assayed against DNA dC->dU-editing enzyme APOBEC-3G (Homo sapiens) (UniProt Q9HC16) (assay: APOBEC3G DNA deaminase inhibitors, primary screen, biochemical, fluorescence, single-stranded DNA substrate, uHTS (AID 493012;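 note: plate controls were DMSO wells with A3G for no effect and wells lacking A3G enzyme for full effect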)). Conditions: recombinant A3G, ssDNA deamination FAM/TAMRA fluorescence; at 20 µM; hits give high values.
In the case of `CC(=O)c1ccc(N2CC2c2ccncc2)cc1` (centres undefined), the inhibition is reported as inactive: -2.7%. For `Cc1ccccc1CN(C)C(=O)COC(=O)C(O)(c1ccccc1)c1ccccc1`, the inhibition was inactive: -7.91%. With `C[C@H]1OP(=O)(Oc2ccccc2)C[C@@H]2O[C@@H]21` (some centres undefined) the inhibition was inactive: -8.07%. With `C[C@@H]1C=CCP(=O)(Oc2ccccc2)O1` (some centres undefined) the inhibition was inactive: -2.34%. In the case of `Cc1cccc(OCC(=O)OC2CN3CCC2CC3)c1` (centres undefined), the inhibition is reported as inactive: -1.93%. In the case of `O=[As](O)(c1cccc(O)c1)c1cccc(O)c1`, the inhibition is reported as inactive: -3.92%. `O=[As](O)(O)c1cccnc1` was tested, and the inhibition was inactive: -0.86%. In the case of `COc1cc(C(=O)NCC2(N3CCOCC3)CCCCC2)cc(Cl)c1OC(C)C`, the inhibition is reported as inactive: 0.217%. In the case of `CS(=O)(=O)c1ccc(Cl)c(NC(=O)COC(=O)C(O)(c2ccccc2)c2ccccc2)c1`, the inhibition is reported as inactive: -1.02%. In the case of `O=C(OC1CN2CCC1CC2)c1ccc(Cl)cc1` (centres undefined), the inhibition is reported as inactive: -2.71%. In the case of `COc1cc(C2NCCC3(OCCO3)C2(C)C)cc(OC)c1OC` (centres undefined), the inhibition is reported as inactive: -0.347%. In the case of `CCOP(=O)(Nc1cccc2ccccc12)OCC`, the inhibition is reported as inactive: -4.71%. With `CCCOP(=S)(Nc1nc(N)cc(=O)[nH]1)OCCC` the inhibition was inactive: -8.07%. For `Cc1ccc(NCCc2c([N+](=O)[O-])cc([N+](=O)[O-])cc2[N+](=O)[O-])cc1`, the inhibition was inactive: 0.497%. For `Nc1ccccc1[As](=O)(O)c1ccccc1`, the inhibition was inactive: -9.46%. With `O=C(O)COc1ccc([As](=O)(O)O)cc1[N+](=O)[O-]` the inhibition was inactive: 3.6%. For `CS(=O)(=O)c1cc([N+](=O)[O-])c2no[n+]([O-])c2c1`, the inhibition was active: 77.3%. In the case of `CCOP1(=S)c2c(C)nn(CCC#N)c2N=C(c2ccccc2F)N1C` (centres undefined), the inhibition is reported as inactive: -5.98%. `O=P(Nc1nccs1)(Oc1ccccc1)Oc1ccccc1` was tested, and the inhibition was inactive: -1.68%. `O=P(Nc1nccs1)(c1ccccc1)c1nc2ccccc2s1` (centres undefined) was tested, and the inhibition was active: 91.5%. `O=[N+]([O-])c1ccc2c(c1)nnn2O` was tested, and the inhibition was inactive: -5.88%. In the case of `CN(C)C(=O)c1cc([N+](=O)[O-])cc2c1-c1c(cc([N+](=O)[O-])cc1[N+](=O)[O-])C2=O`, the inhibition is reported as inactive: -5.03%. For `CN(C(=O)Cc1ccc(Cl)c(Cl)c1)[C@H]1CC[C@@]2(CCCO2)C[C@@H]1N1CCCC1`, the inhibition was inactive: -10.3%. For `N#CCCN(C(=O)COC(=O)C(O)(c1ccccc1)c1ccccc1)c1ccc(F)cc1`, the inhibition was inactive: -12.8%. For `CCOP1(=S)c2c(C)nn(CCC#N)c2N=C(c2ccc(F)cc2)N1C` (centres undefined), the inhibition was inactive: -6.62%. With `CN(C(=O)Cc1ccccc1)[C@@H]1CC[C@]2(CCCO2)C[C@H]1N1CCCC1` the inhibition was inactive: -5.83%. `NC(=O)Nc1ccc([As](=O)(O)O)cc1` was tested, and the inhibition was inactive: 8.37%. For `O=C(/C=C/c1ccccc1)OC1CN2CCC1CC2` (centres undefined), the inhibition was inactive: -6.01%. With `CN(C)C1(CNC(=O)c2ccc(S(C)(=O)=O)cc2)CCCCC1` the inhibition was inactive: -4.39%. For `Cc1nn(-c2ccccc2)c2c1P(=O)(N1CCOCC1)N(C)C(c1ccccc1)=N2` (centres undefined), the inhibition was inactive: -0.838%. For `CC1CCC(C(C)C)C(OP(=O)(Nc2ccccn2)c2ccccc2)C1` (centres undefined), the inhibition was inactive: -9.69%. For `Cc1ccc(C(=O)OC2CN3CCC2CC3)cc1` (centres undefined), the inhibition was inactive: -1.65%. In the case of `O=[As](O)(c1cccs1)c1cccs1`, the inhibition is reported as inactive: -5.54%. In the case of `Cc1ccc(OCC(=O)OC2CN3CCC2CC3)cc1` (centres undefined), the inhibition is reported as inactive: -2.04%. With `O=P1(Nc2ccc(Br)cn2)COc2ccccc2OC1` the inhibition was inactive: -4.56%. With `NS(=O)(=O)c1cccc(NC(=O)COC(=O)C(O)(c2ccccc2)c2ccccc2)c1` the inhibition was inactive: -3.95%. For `Nc1cccc([As](=O)(O)c2ccccc2)c1`, the inhibition was inactive: -5.94%. For `O=P1(Nc2ncccn2)COc2ccccc2OC1`, the inhibition was inactive: -3.53%. In the case of `Clc1n[nH]nc1-c1nn[nH][15n]1`, the inhibition is reported as inactive: -5.93%. In the case of `CC(C)(C)C(=O)NC(Sc1ncccn1)C(Cl)(Cl)Cl` (centres undefined), the inhibition is reported as inactive: -0.647%. With `CCOP(=O)(Nc1ccc(C)cn1)OCC` the inhibition was inactive: -7.34%. In the case of `CN(CCCl)Cc1cc(Cl)c(NC2=NCCN2)c(Cl)c1`, the inhibition is reported as inactive: -3.63%. In the case of `O=P1(Nc2ccccn2)COc2ccccc2OC1`, the inhibition is reported as inactive: -6.63%. For `CCC1=CC2Cc3nc4ccc(Cl)cc4c(N)c3C(C1)C2` (centres undefined), the inhibition was inactive: -3.83%. For `CCOP(=O)(NC(=NC(C)c1ccccc1)NC(C)c1ccccc1)OCC` (centres undefined), the inhibition was inactive: -0.987%. With `O=[As](O)(c1ccccc1Br)c1ccccc1Br` the inhibition was inactive: -3.6%. In the case of `CC1(CBr)Cn2c(nc3ccccc3c2=O)S1` (centres undefined), the inhibition is reported as inactive: -2.07%. With `CC(C)/C=N\N=C(\N)N[N+](=O)[O-]` the inhibition was inactive: 0.973%. In the case of `CN(C(=O)Cc1ccc(Cl)c(Cl)c1)[C@@H]1CCCC[C@H]1N1CCCC1`, the inhibition is reported as inactive: -7.54%. `COc1ccccc1CNC(=O)COC(=O)C(O)(c1ccccc1)c1ccccc1` was tested, and the inhibition was inactive: -5.24%. With `O=C(COc1ccccc1)OC1CN2CCC1CC2` (centres undefined) the inhibition was inactive: -0.174%. In the case of `O=C(Nc1ccncc1[N+](=O)[O-])c1ccc([N+](=O)[O-])cc1[N+](=O)[O-]`, the inhibition is reported as inactive: -11.2%. In the case of `COP1(=S)c2c(C)nn(CCC#N)c2N=C(c2ccc(F)cc2)N1C` (centres undefined), the inhibition is reported as inactive: -1.35%. For `CCC(C)N(CC(C)C)C(=S)SC(NC(C)=O)C(Cl)(Cl)Cl` (centres undefined), the inhibition was inactive: -0.286%. `CCOC(=O)c1ccc(NC(=O)C(C)(CCl)SC)cc1` (centres undefined) was tested, and the inhibition was inactive: 0.805%. For `O=C(OC1CN2CCC1CC2)c1cccc([N+](=O)[O-])c1` (centres undefined), the inhibition was inactive: -3.44%. `CCCCOc1ccc(C(=O)NCC2(N3CCCCC3)CCCCC2)cc1OC` was tested, and the inhibition was inactive: -7.42%. In the case of `Cc1cc(SC(NC(=O)c2ccccc2)C(Cl)(Cl)Cl)nc(C(C)C)n1` (centres undefined), the inhibition is reported as inactive: 6.96%. With `CCOC(=O)Nc1ccc([As](=O)(O)O)c(O)c1` the inhibition was inactive: 0.235%. `O=P(Nc1ccccn1)(c1cccc2ccccc12)c1cccc2ccccc12` was tested, and the inhibition was inactive: -5.89%. With `Cc1cc(SC(NC=O)C(Cl)(Cl)Cl)ncn1` (centres undefined) the inhibition was inactive: 12%. For `CCOC(=O)Nc1cccc([As](=O)(O)O)c1`, the inhibition was inactive: -4.36%. `Cc1ccc2nc3c(c(C)c2c1)CC(C(Cl)Cl)S3` (centres undefined) was tested, and the inhibition was inactive: -1.17%. In the case of `Cc1ccc(OP(=O)(Nc2ccc([N+](=O)[O-])cn2)Oc2ccc(C)cc2)cc1`, the inhibition is reported as inactive: -3.67%. `C[As](=O)(O)c1cccc(C(=O)O)c1` was tested, and the inhibition was inactive: -0.025%. In the case of `O=[As](O)(c1ccc(O)cc1)c1ccccc1O`, the inhibition is reported as inactive: -5.56%. In the case of `COc1cc(C(=O)NCC2(N3CCOCC3)CCCCC2)ccc1OCC(C)C`, the inhibition is reported as inactive: -2.58%. For `CC(C)NC(=O)NP(=O)(Oc1ccccc1)Oc1ccccc1`, the inhibition was inactive: -2.44%. For `O=C(OC1CN2CCC1CC2)c1cccc2[nH]cnc12` (centres undefined), the inhibition was inactive: -4.79%. With `CCN(CC)C(=S)SC(NC=O)C(Cl)(Cl)Cl` (centres undefined) the inhibition was inactive: 1.21%. For `O=[N+]([O-])c1cc([N+](=O)[O-])c(-c2ccn[nH]2)s1`, the inhibition was inactive: -1.74%. `CC(C)c1ccc(OP(=O)(Nc2ccccn2)Oc2ccccc2F)cc1` (centres undefined) was tested, and the inhibition was inactive: -0.661%. For `ClCCSc1nnc(-c2cccnc2)o1`, the inhibition was inactive: -1.58%. With `COc1ccc2nc(NP(=O)(c3ccccc3)c3ccccc3)sc2c1` the inhibition was inactive: -2.44%. In the case of `COc1cc(I)ccc1[As](=O)(O)O`, the inhibition is reported as inactive: -3.91%. `O=C(OC1CN2CCC1CC2)C12CC3CC(CC(C3)C1)C2` (centres undefined) was tested, and the inhibition was inactive: -0.079%. For `Cc1cc(=O)[nH]c(N[N+](=O)[O-])n1`, the inhibition was inactive: -10.5%. With `Cc1c2c(nc3ccccc13)SC(C(Cl)Cl)C2` (centres undefined) the inhibition was inactive: -8.31%. For `COc1ccc(N/C(=N/P(=O)(N2CCOCC2)N2CCOCC2)N2CCOCC2)cc1`, the inhibition was inactive: -9.51%.

— PubChem BioAssay AID493012 (Sanford-Burnham Center for Chemical Genomics, 2011)
